Experimental melting point values from OPERA 2.9

The melting point is given in degrees Celsius.
Cells with "n/a" have no entry in this list.

SMILES | name | mp (°C)
O=C(O)CCOc1cccc(Cl)c1 | 3-(3-Chlorophenoxy)propionic acid | 86
Cc1ccc(CN2CC(C(=O)O)CC2=O)cc1 (stereo unspecified) | n/a | 154
CC=Cc1ccc(OCC(=O)O)c(OC)c1 | Acetic acid, [2-methoxy-4-(1-propenyl)phenoxy]- | 118
Cc1ccccc1Nc1n[nH]c(=S)s1 | n/a | 231
CC(C)(O)C(=O)c1ccc(C2(C)CC(C)(C)c3cc(C(=O)C(C)(C)O)ccc32)cc1 (stereo unspecified) | n/a | 118.5
CCCCCCCC/C=C\CCCCCCCC(=O)OCC(C)OC(=O)CCCCCCC/C=C\CCCCCCCC (stereo partly drawn) | 1-Methyl-1,2-ethanediyl 9-octadecenoate | -15
OB(O)c1ccc2cc(O)ccc2c1 | (6-Hydroxynaphthalen-2-yl)boronic acid | 217
O=C1CCC(O)C2C3CCC(C3=C(Cl)Cl)C12 (stereo unspecified) | n/a | 150.9
O=C(O)c1ccc(-c2cccc3ccccc23)s1 | 5-(1-naphthyl)thiophene-2-carboxylic acid | 250
CCN(CC)S(=O)(=O)c1ccc(N)cc1 | Benzenesulfonamide, 4-amino-N,N-diethyl- | 100
CCOC(=O)c1c(N=C=S)sc(C)c1C | ethyl 2-isothiocyanato-4,5-dimethylthiophene-3-carboxylate | 68
CC(=O)C=CC12OC1(C)CCCC2(C)C (stereo unspecified) | 5,6-beta-Ionone epoxide | 49
COc1ccc2cc(CO)ccc2c1 | (6-methoxynaphthalen-2-yl)methanol | 123
C=C(C)C(=O)OCCOP(=O)([O-])OCC[N+](C)(C)C | n/a | 140.8
CN(C)C(=O)c1ccc(Cl)cc1N | 2-Amino-4-chloro-N,N-dimethylbenzamide | 66
Cc1cc([N+](=O)[O-])cc(S(=O)(=O)Cl)c1C | Benzenesulfonyl chloride, 2,3-dimethyl-5-nitro- | 67
COc1cc(S(=O)(=O)[O-])c(C)cc1/N=N/c1c(O)ccc2cc(S(=O)(=O)[O-])ccc12.[Na+].[Na+] | n/a | 244.7
O=C(O)c1ccc2c(c1)CCC2 | Indan-5-carboxylic acid | 174
COc1ccc(C(=O)CSc2cccc(OC)c2)cc1 | 1-(4-Methoxyphenyl)-2-[(3-methoxyphenyl)sulfanyl]ethan-1-one | 56.37
CCNC(=O)OC(C)(C)C | Tert-butyl N-ethylcarbamate | 39.5
CN(C)CCN(Cc1ccc(Cl)cc1)c1ccccn1 | Chloropyramine [INN:BAN:DCF] | 42.5
N#CCc1cnn(-c2ccccc2)c1 | (1-phenyl-1H-pyrazol-4-yl)acetonitrile | 39
CN1C(=O)NC(=O)C12CCCCC2 | 1,3-Diazaspiro(4.5)decane-2,4-dione, 1-methyl- | 173
C=CC(=O)OCCCCOC(=O)Oc1ccc(C(=O)c2ccccc2)cc1 | n/a | -42.1
C=C(C)C(=O)OCCN1CCNC1=O | n/a | 28
Nc1nc(-c2ccncc2)cs1 | 4-Pyridin-4-yl-thiazol-2-ylamine | 173
O=C1CSC(=S)N1c1cccnc1 | 3-(Pyridin-3-yl)-2-sulfanylidene-1,3-thiazolidin-4-one | 160
CCC(C)(C)[C@H]1CC[C@H](O)CC1 | trans-4-(1,1-Dimethylpropyl)cyclohexanol | 25.5
Cc1ccc(S(=O)(=O)OC2CCCCC2)cc1 | Benzenesulfonic acid, 4-methyl-, cyclohexyl ester | 45.5
Nc1nnc(-c2ccccc2)o1 | 1,3,4-Oxadiazole, 2-amino-5-phenyl- | 244
Cn1cc(C(=O)O)ccc1=O | N(1)-Methyl-2-pyridone-5-carboxylic acid | 237
CC(=O)CC(=O)Nc1ccc(C)c(Cl)c1 | N-(3-chloro-4-methylphenyl)-3-oxobutanamide | 109
O=C(c1cc2ccccc2cc1O)N1CCOCC1 | 3-(morpholin-4-ylcarbonyl)-2-naphthol | 217
O=C(NC(Cc1ccccc1)C(=O)O)c1ccc(Cl)cc1 (stereo unspecified) | 2-[(4-chlorobenzoyl)amino]-3-phenylpropanoic acid | 196
CC(C)CC(C)c1ccccc1N (stereo unspecified) | 2-(1,3-Dimethylbutyl)aniline | -78.5
CN1CCC(N2CCNCC2)CC1 | 1-(1-Methyl-4-piperidinyl)piperazine | 30.5
Cc1ccc(C(=O)CCC(=O)O)s1 | 4-(5-Methylthiophen-2-yl)-4-oxobutanoic acid | 100
N#Cc1ccc(C=Cc2ccc(C=Cc3cccc(C#N)c3)cc2)cc1 | n/a | 208.8
O=C(O)c1ccc2c(=O)n3c(nc2c1)CCCCC3 | n/a | 277
Cc1cc(OCC(=O)O)ccc1Cl | Acetic acid, (4-chloro-3-methylphenoxy)- | 181
CC(=O)NCCc1ccc(C(=O)O)cc1 | 4-[2-(acetylamino)ethyl]benzoic acid | 176
N=C(NO)c1ccsc1 | N-Hydroxythiophene-3-carboximidamide | 67
Cc1n[nH]c(=S)n1C1CCCCC1 | 4-cyclohexyl-5-methyl-4H-1,2,4-triazole-3-thiol | 165
CO/N=C1\COc2ccccc21 | (Z)-Benzofuran-3(2H)-one O-methyl oxime | 28.1
[F][Sb-]([F])([F])([F])([F])[F].c1ccc(Sc2ccc([S+](c3ccccc3)c3ccccc3)cc2)cc1 | n/a | 122
Brc1cc(Br)c(Oc2ccccc2)c(Br)c1 | 2,4,6-Tribromodiphenyl ether | 85.5
O=CC1=Cc2cc(Br)ccc2OC1 | 2H-1-Benzopyran-3-carboxaldehyde, 6-bromo- | 104
C=C(C)C(=O)NCNC(=O)C(=C)C | 2-Propenamide, N,N'-methylenebis[2-methyl- | 163
Nc1ccccc1C(=O)N1CCCCC1 | (2-Aminophenyl)(piperidin-1-yl)methanone | 81
O=C(CCl)NC1C2CC3CC(C2)CC1C3 (stereo unspecified) | N-Adamantan-2-yl-2-chloro-acetamide | 120
NC(=O)CCc1ccccc1 | beta-Phenylpropionamide | 101

The 5 lowest values of mp among the entries above:

SMILES	name	mp (°C)
CC(C)CC(C)c1ccccc1N (stereo unspecified)	2-(1,3-Dimethylbutyl)aniline	-78.5
C=CC(=O)OCCCCOC(=O)Oc1ccc(C(=O)c2ccccc2)cc1	n/a	-42.1
CCCCCCCC/C=C\CCCCCCCC(=O)OCC(C)OC(=O)CCCCCCC/C=C\CCCCCCCC (stereo partly drawn)	1-Methyl-1,2-ethanediyl 9-octadecenoate	-15
CCC(C)(C)[C@H]1CC[C@H](O)CC1	trans-4-(1,1-Dimethylpropyl)cyclohexanol	25.5
C=C(C)C(=O)OCCN1CCNC1=O	n/a	28

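OPERA's authors assembled the values from existing databases and did not measure them anew. One number stands for a compound and property, with no spread given. Method and conditions are not stated for these values. Where a salt, mixture or single isomer is drawn, the source does not say that exactly this form was tested. Unmarked limits or estimates from the upstream databases cannot be ruled out.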

Values as listed in the OPERA 2.9 repository of K. Mansouri.